Test results: ChEMBL document CHEMBL1145379 (J Med Chem, 2007)

Organism: Bos taurus

**Q.** For `CN1CCN(Cc2csc(C(=O)Nc3ccc(Cl)cc3C(=O)Nc3ccc(Cl)cc3)c2Cl)CC1`, which Ki/Km is on record?
**A.** Its Ki/Km is over 5 µM.
